Consider 13 compounds from the OPERA property sets (Mansouri et al. 2018).

In brackets after ≈: the same amount, converted by molar mass.

The conditions of this data set: experimental values compiled from the literature.
`N=C(NN)N[N+](=O)[O-]` displayed a solubility of 22.6 mM (≈ 2690 µg/mL).
Then `Nc1cc([N+](=O)[O-])cc([N+](=O)[O-])c1O`, with 4.79 mM (≈ 954 µg/mL); and `N=C(N)N[N+](=O)[O-]`, with 42.3 mM (≈ 4400 µg/mL).
Compound `C[As](=O)(O)O` returned a solubility of 1830 mM.
Then `O=[N+]([O-])c1cc([N+](=O)[O-])c(O)c([N+](=O)[O-])c1O`, with 21.8 mM (≈ 5340 µg/mL); and `O=[N+]([O-])c1ccccc1[N+](=O)[O-]`, with 0.791 mM (≈ 133 µg/mL).
Then `CN(C)P(=O)(N(C)C)n1nc(-c2ccccc2)nc1N`, with 0.849 mM (≈ 250 µg/mL); and `O=C(O)C(O)(c1ccccc1)c1ccccc1`, with 6.18 mM (≈ 1410 µg/mL); and `CCOP(=S)(CC)Oc1cc(Cl)c(Cl)cc1Cl` (stereo not drawn), with 0.00177 mM (≈ 0.59 µg/mL).
Then `O=[N+]([O-])OCC(O)CO[N+](=O)[O-]`, with 431 mM (≈ 78400 µg/mL); and `CC(C)OP(=S)(OC(C)C)SCCNS(=O)(=O)c1ccccc1`, with 0.0629 mM (≈ 25 µg/mL).
For the compound `O=[N+]([O-])c1ccc([N+](=O)[O-])cc1`, the solubility came to 0.41 mM (≈ 69 µg/mL).
Then `O=[N+]([O-])C(Cl)([N+](=O)[O-])[N+](=O)[O-]`, with 11.9 mM (≈ 2200 µg/mL).
